Experimental data taken from paper PMC12569658, “An Orally Administered Misuse Deterrent Opioid Prodrug for Treatment of Acute Pain” (JACS Au, 2025).

Test system: C57BL/6J mice
Test: Hot plate latency after PO gavage
Details: 30 mg/kg of oxycodone in prodrug, 55 °C hot plate, oxycodone control 3 mg/kg PO, n = 6

Ac-Lys[Tyr-Ala-Ala-Ala]-(2-(oxycodone-thionocarbamate)methyl)ethylamino ditrifluoroacetate [compound 20]
thermal threshold (hot plate) latency after PO gavage: increased to a level similar to that of the oxycodone positive control
